# Antibody variant affinities, Ab-14 light chain, assay B

Target peptide (SARS-CoV-2 spike, HR2 region): PDVDLGDISGINAS

Parent: Ab-14, a human scFv built as VH, the linker GGGGSGGGGSGGGGS, VL. Only the CDRs of the light chain vary.
VH: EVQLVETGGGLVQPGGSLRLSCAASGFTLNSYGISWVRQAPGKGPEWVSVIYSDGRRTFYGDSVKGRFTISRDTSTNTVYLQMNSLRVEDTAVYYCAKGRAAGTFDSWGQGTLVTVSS
VL: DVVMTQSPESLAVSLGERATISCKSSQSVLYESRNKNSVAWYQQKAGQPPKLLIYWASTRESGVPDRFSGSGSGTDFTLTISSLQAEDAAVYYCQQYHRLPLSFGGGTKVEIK

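The starting antibody came from a phage panning campaign against this peptide. These sequences belong to a second round, designed from the earlier measurements on random variants of the parent. Their group label is 14L_En_HC (En: ensemble of fine-tuned language models; HC: hill climbing; a sequence that several methods proposed may carry one label only). AlphaSeq pools MATa yeast showing the antibodies with MATalpha yeast showing the peptide. Pairs that bind mate more often; barcode pairs of the diploids are counted by sequencing. Each replicate has its own calibration line, from reference interactions of the BCL2 family. Each pool was mated in six replicate cultures.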

The parent's light chain CDRs are KSSQSVLYESRNKNSVA, WASTRES, QQYHRLPLS; each variant's own CDRs replace them letter for letter.
The read-out is the apparent dissociation constant on a log10 scale (nM): the lower, the stronger.
A mean of the replicates is given; it leaves out those without a signal.
Where no diploid with the target was found in that replicate, the entry reads "nd": below detection, most likely a poor binder, though not proof of it.
In the paper, a design with two or fewer of six values counts as a poor binder.
As a blank, each scFv also met three strains without target: over all light chain designs, 4% of these pairings were detected, typically at 2.64 and seldom below 1.59. Also given: how often the same scFv was detected with the empty control strains, with their mean in brackets.
Of ten entries with the parent sequence, four were seen in most replicates (averages 0.34 to 2.37), three in one and three in none, so single entries are noisy.
Values of this round are not directly comparable with the first-round values of the same sequences.

| CDR-L1 | CDR-L2 | CDR-L3 | log10 Kd, replicates | mean, log10 nM | control signals |
|---|---|---|---|---|---|
| TIAQSMLYLSNHKNSIA | QAETRES | QQYHRLPIS | 1.64 2.21 1.02 1.13 2.22 2.04 | 1.71 | 0 of 18 |
| MFSQLMEYGSRYKNSVA | QASTRED | QQYHWLPLS | 1.43 1.56 1.48 1.68 1.26 1.68 | 1.51 | 0 of 18 |
| KISQLVNFEGKNKNSVA | QMSTRES | QQYDRLPLS | 0.31 0.11 0.22 0.32 0.33 0.53 | 0.30 | 0 of 18 |
| KLSTLFYKESRNKNNVA | EMTTRGS | QQYDRLPLS | nd nd nd nd nd nd | nd | 0 of 18 |
| KIGGVTNGISKNKNSVA | EQSTRES | QQYNRLPLS | 0.26 -0.01 -0.14 -0.24 -0.05 0.19 | 0.00 | 2 of 18 (2.84) |
| KLSGATRLESQNKASVA | ENSTRGE | QQYFRLPLS | 0.50 0.58 0.41 0.43 0.37 0.65 | 0.49 | 0 of 18 |
| TLSQLDDMTSRNVNSVA | DLTTRGN | QQYHRLPLS | 0.30 0.26 0.21 0.37 0.84 0.17 | 0.36 | 0 of 18 |
| KLYQSVGTMSHNKQSIA | DMDRRED | QQYHRLPLS | 0.06 -0.04 0.04 -0.13 0.64 0.20 | 0.13 | 0 of 18 |
| KLYFNVGTMSHNQQSIA | DMERRED | QQYHRLPLS | 0.71 0.08 0.19 0.29 -0.17 0.25 | 0.23 | 1 of 18 (2.28) |
| QLGAVLDMTSKNKNSVA | EQSTREN | QQYHRLPLS | 0.34 0.29 0.37 0.20 0.42 0.40 | 0.34 | 0 of 18 |
| KISSMSTIESIMHNSVA | QTSTREN | QQYDRLPLS | 0.65 0.62 0.86 0.48 1.01 0.98 | 0.77 | 1 of 18 (1.69) |
| KLLQEVTGHSRQRNSVA | HNSTRED | QQYDRLPLI | nd nd 1.86 2.99 nd 3.33 | 2.73 | 1 of 18 (2.56) |
| MFSQSVMYGSFMRNSVA | QTETREN | QQYDRLPLS | 0.75 0.83 0.42 0.37 0.61 1.30 | 0.71 | 0 of 18 |
| TLVQSVMSGSRTKNSVA | NAETRYD | QHYHRLPLS | 1.62 1.32 0.75 0.97 1.66 1.40 | 1.28 | 0 of 18 |
| HLGGLMTWEEKARNSVA | QQETRAE | QQYHHLPLS | 0.28 0.26 0.35 0.29 0.33 0.69 | 0.37 | 1 of 18 (2.21) |
| KLSMSYRFETEEKNSIA | ELVTRMS | QQYHRLPLS | nd 1.26 1.17 0.49 0.98 0.69 | 0.92 | 1 of 18 (1.55) |
| LISSVWDYGSRNYNSVA | QTSTREN | QQYDRLPLE | nd 1.91 1.70 1.60 1.34 1.35 | 1.58 | 2 of 18 (2.12) |
| KIGDMVHTESRNKNSIA | DMRTRES | QQYYRLPLS | 0.61 0.82 0.72 0.61 0.91 0.87 | 0.76 | 2 of 18 (2.72) |
| TLSHSTDLESVHKNSIA | DLMTRES | QQYDRLPLS | 0.13 0.97 0.75 0.56 0.55 0.51 | 0.58 | 0 of 18 |
| HISQMWMLESRNKNNVA | EESTRND | QSYFRLPLS | 0.53 0.02 0.45 0.18 -0.01 0.85 | 0.34 | 0 of 18 |
| KLSMSYRFETLEKNSIA | ELVTRMS | QQYHRLPLS | nd nd nd nd nd nd | nd | 0 of 18 |
| TISGLIMMPSRAKNSVA | NTSTRYS | QQYHRLPLS | 0.83 0.74 0.73 0.85 0.69 0.77 | 0.77 | 1 of 18 (4.17) |
| KISMMYRFESTASNNIA | EMTTRAE | QSYHRLPLS | 1.36 nd 0.53 1.17 0.68 0.77 | 0.90 | 0 of 18 |
| TISTTMRYESSLKNAIA | NAQTRES | QQYHRLPLS | 0.11 0.51 0.43 0.34 0.43 0.42 | 0.37 | 1 of 18 (2.25) |
| MFSQGVMVGWLTRNSVA | NSETRES | QQYDRLPLS | 0.99 1.62 1.53 1.44 1.07 1.21 | 1.31 | 0 of 18 |
| NFSQMVLYGSTLKNSVA | QASTREE | QQYHRLPLI | 1.03 0.95 0.83 0.92 1.00 0.94 | 0.95 | 3 of 18 (3.34) |
| KLGQSVAMTSRNKNNVA | DLNVRER | QQYHRLPLS | -0.07 -0.27 -0.42 -0.40 -0.15 0.02 | -0.21 | 2 of 18 (2.96) |
| KLSVSYLFESQEKNSIA | ENSTRES | QHYHRLPLS | nd nd nd nd nd 2.40 | 2.40 | 0 of 18 |
| KLYQNVGTMSVNKQSIA | DMERRED | QQYHRLPLS | 0.55 0.59 0.23 -0.09 0.33 0.56 | 0.36 | 0 of 18 |
| TISTSAGYESINKNSVA | ELSTRGS | QQYERLPLS | 0.87 0.03 0.43 0.07 1.57 0.50 | 0.58 | 0 of 18 |
| TIGQMFNGESRNRNSVA | QASTREH | QSYDRLPLS | 0.63 0.36 0.58 0.37 0.57 0.60 | 0.52 | 0 of 18 |
| KLLQEVTGRTQNRNSVA | HNSTRED | QQYDRLPLI | 0.79 0.13 0.31 0.50 0.69 0.23 | 0.44 | 1 of 18 (3.03) |
| QLSGPMVMESKNKNSVA | EFSTRGS | QQYHRLPLS | nd nd nd 0.79 2.90 1.76 | 1.81 | 0 of 18 |
| KLSLFYRMESRNKNSVA | DNSTRES | QDYDRLPLS | nd nd nd nd nd nd | nd | 0 of 18 |
| NVGQLMDGETRNKNSVA | HQSTRED | QHYHRLPLS | 1.09 1.81 0.69 1.07 1.33 1.21 | 1.20 | 0 of 18 |

The first 2 entries again:

CDR-L1,CDR-L2,CDR-L3,"log10 Kd, replicates","mean, log10 nM",control signals
TIAQSMLYLSNHKNSIA,QAETRES,QQYHRLPIS,1.64 2.21 1.02 1.13 2.22 2.04,1.71,0 of 18
MFSQLMEYGSRYKNSVA,QASTRED,QQYHWLPLS,1.43 1.56 1.48 1.68 1.26 1.68,1.51,0 of 18

Source: Li et al. 2023 (doi:10.1038/s41467-023-39022-2), MIT Lincoln Laboratory and A-Alpha Bio; data file from the FLAb repository.